The record followed here is PubChem BioAssay AID488899 (Broad Institute, 2010).

The list shows a part of the results, in another mix than the full data. The source made the active and inactive calls.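 Rule for the calls: active = mean inhibition across replicates of 60% or more, whatever share of single replicates reaches that level; inconclusive = some that reach 60%, reason not given; inactive = mean inhibition across replicates below 60%.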

This assay in a line: MITF transcriptional activity suppression – cell-based, SK-MEL-5, single point, luciferase, primary screen (AID 488899). Conditions: SK-MEL-5 TRPM1 promoter luciferase, 24 h; at 12.5 µM; hits give high values.
What is called inhibition is the relative decrease from the control value, in per cent. Regarding `O=P1(Nc2ncccn2)COc2ccccc2OC1`, the inhibition is inactive: -2.86%.
For `O=P1(Nc2ccc(Br)cn2)COc2ccccc2OC1`, the inhibition is inactive: 14.6%.
Then `Cc1ccc(OCC(=O)OC2CN3CCC2CC3)cc1` (centres undefined), with inactive: -4.55%.
On to `O=[As](O)(c1cccs1)c1cccs1`, for which the inhibition was inactive: 12.5%.
In the case of `Nc1cccc([As](=O)(O)c2ccccc2)c1` it was inactive: -7.23%; in that of `Cc1nn(-c2ccccc2)c2c1P(=O)(N1CCOCC1)N(C)C(c1ccccc1)=N2` (centres undefined), inactive: 0.019%.
In the case of `CC1CCC(C(C)C)C(OP(=O)(Nc2ccccn2)c2ccccc2)C1` (centres undefined) it was inactive: 1.58%.
In the case of `Cc1ccc(C(=O)OC2CN3CCC2CC3)cc1` (centres undefined) it was inactive: 1.1%.
With `O=C(/C=C/c1ccccc1)OC1CN2CCC1CC2` (centres undefined), the inhibition was inactive: -9.95%.
On to `CCCC1OP(=O)(Nc2ccccc2)OCC1CC` (centres undefined), for which the inhibition was inactive: -17.4%.
In the case of `CN(C)C1(CNC(=O)c2ccc(S(C)(=O)=O)cc2)CCCCC1` it was inactive: 7.77%; in that of `COc1ccccc1CNC(=O)COC(=O)C(O)(c1ccccc1)c1ccccc1`, inactive: -0.486%; in that of `CC1(CBr)Cn2c(nc3ccccc3c2=O)S1` (centres undefined), inactive: -3.38%.
As for `CC(C)/C=N\N=C(\N)N[N+](=O)[O-]`, the inhibition is inactive: 7%.
Then `CN(C(=O)Cc1ccc(Cl)c(Cl)c1)[C@@H]1CCCC[C@H]1N1CCCC1`, with inactive: -8.03%; and `CCOP(=O)(Nc1ccc(C)cn1)OCC`, with inactive: 12.8%.
Regarding `O=P1(Nc2ccccn2)COc2ccccc2OC1`, the inhibition was inactive: 3.92%.
Then `CCC1=CC2Cc3nc4ccc(Cl)cc4c(N)c3C(C1)C2` (centres undefined), with inactive: -9.42%.
Turning to `CCOP(=O)(NC(=NC(C)c1ccccc1)NC(C)c1ccccc1)OCC` (centres undefined), the inhibition was inactive: 2.3%.
In the case of `Clc1n[nH]nc1-c1nn[nH][15n]1` it was inactive: -5.08%.
Then `CC(C)(C)C(=O)NC(Sc1ncccn1)C(Cl)(Cl)Cl` (centres undefined), with inactive: 23.6%; and `CCCOP(=S)(Nc1nc(N)cc(=O)[nH]1)OCCC`, with inactive: 4.84%; and `Cc1ccc(NCCc2c([N+](=O)[O-])cc([N+](=O)[O-])cc2[N+](=O)[O-])cc1`, with inactive: 8.3%.
In the case of `Nc1cccc2c([As](=O)(O)O)cccc12` it was inactive: -21.5%; in that of `COc1cc(C2NCCC3(OCCO3)C2(C)C)cc(OC)c1OC` (centres undefined), inactive: -1.87%.
For the molecule `CCOP(=O)(Nc1cccc2ccccc12)OCC`, the inhibition was inactive: 7.55%.
In the case of `COc1cc(C(=O)NCC2(N3CCOCC3)CCCCC2)cc(Cl)c1OC(C)C` it was inactive: 13.9%; in that of `O=[As](O)(O)c1cccnc1`, inactive: 9.1%; in that of `CS(=O)(=O)c1ccc(Cl)c(NC(=O)COC(=O)C(O)(c2ccccc2)c2ccccc2)c1`, inactive: 6.3%.
Then `O=C(OC1CN2CCC1CC2)c1ccc(Cl)cc1` (centres undefined), with inactive: -0.148%; and `O=[As](O)(c1cccc(O)c1)c1cccc(O)c1`, with inactive: 5.11%.
Then `Cc1cccc(OCC(=O)OC2CN3CCC2CC3)c1` (centres undefined), with inactive: 4.8%; and `NC(=O)Nc1ccc([As](=O)(O)O)cc1`, with inactive: 2.31%.
For the molecule `CN(C)C(=O)c1cc([N+](=O)[O-])cc2c1-c1c(cc([N+](=O)[O-])cc1[N+](=O)[O-])C2=O`, the inhibition was active: 70.9%.
Take `O=[N+]([O-])c1ccc2c(c1)nnn2O`: the inhibition was inactive: 8.48%.
With `CN(C(=O)Cc1ccc(Cl)c(Cl)c1)[C@H]1CC[C@@]2(CCCO2)C[C@@H]1N1CCCC1`, the inhibition is inactive: -9.42%.
Then `N#CCCN(C(=O)COC(=O)C(O)(c1ccccc1)c1ccccc1)c1ccc(F)cc1`, with inactive: 3.43%.
Turning to `CCOP1(=S)c2c(C)nn(CCC#N)c2N=C(c2ccc(F)cc2)N1C` (centres undefined), the inhibition is inactive: 9.45%.
In the case of `CN(C(=O)Cc1ccccc1)[C@@H]1CC[C@]2(CCCO2)C[C@H]1N1CCCC1`, the inhibition is inactive: -14.1%.
Then `CS(=O)(=O)c1cc([N+](=O)[O-])c2no[n+]([O-])c2c1`, with inactive: 11.9%; and `CCOP1(=S)c2c(C)nn(CCC#N)c2N=C(c2ccccc2F)N1C` (centres undefined), with inactive: 3.32%.
Take `O=P(Nc1nccs1)(c1ccccc1)c1nc2ccccc2s1` (centres undefined): the inhibition is inactive: 12.1%.
For the molecule `O=P(Nc1nccs1)(Oc1ccccc1)Oc1ccccc1`, the inhibition is inactive: 0.0925%.
Then `Nc1ccccc1[As](=O)(O)c1ccccc1`, with inactive: 10.4%.
On to `O=C(O)COc1ccc([As](=O)(O)O)cc1[N+](=O)[O-]`, for which the inhibition was inactive: 1.87%.
In the case of `CC(C)c1ccc(OP(=O)(Nc2ccccn2)Oc2ccccc2F)cc1` (centres undefined) it was inactive: -2.97%.
With `COC(=O)C1(C)COP(=O)(N2CCCCCC2)OC1` (centres undefined), the inhibition is inactive: 1.34%.
Then `ClCCSc1nnc(-c2cccnc2)o1`, with inactive: -15.2%; and `CCN(CC)C(=S)SC(NC=O)C(Cl)(Cl)Cl` (centres undefined), with inactive: 38.2%; and `O=C(OC1CN2CCC1CC2)c1cccc2[nH]cnc12` (centres undefined), with inactive: 9.76%.
In the case of `CC(C)NC(=O)NP(=O)(Oc1ccccc1)Oc1ccccc1` it was inactive: -4.81%; in that of `O=[N+]([O-])c1cc([N+](=O)[O-])c(-c2ccn[nH]2)s1`, active: 73.2%; in that of `O=[As](O)(c1ccc(O)cc1)c1ccccc1O`, inactive: -10.7%.
In the case of `C[As](=O)(O)c1cccc(C(=O)O)c1` it was inactive: -8.27%.
As for `COc1cc(C(=O)NCC2(N3CCOCC3)CCCCC2)ccc1OCC(C)C`, the inhibition was inactive: -9.68%.
In the case of `O=[N+]([O-])c1ccc(-c2cc([N+](=O)[O-])c(O)c([N+](=O)[O-])c2)cc1` it was inactive: 2.34%; in that of `Cc1ccc2nc3c(c(C)c2c1)CC(C(Cl)Cl)S3` (centres undefined), inactive: -8.44%; in that of `Cc1ccc(OP(=O)(Nc2ccc([N+](=O)[O-])cn2)Oc2ccc(C)cc2)cc1`, inactive: 10.6%.
Then `COc1ccc(N/C(=N/P(=O)(N2CCOCC2)N2CCOCC2)N2CCOCC2)cc1`, with inactive: -0.591%; and `O=[N+]([O-])c1cc(Oc2ccc([N+](=O)[O-])cc2C(F)(F)F)cc([N+](=O)[O-])c1`, with inactive: 22.4%; and `O=C(OC1CN2CCC1CC2)C12CC3CC(CC(C3)C1)C2` (centres undefined), with inactive: -8.74%.
On to `Cc1cc(=O)[nH]c(N[N+](=O)[O-])n1`, for which the inhibition was inactive: -14.3%.
In the case of `Cc1c2c(nc3ccccc13)SC(C(Cl)Cl)C2` (centres undefined) it was inactive: -10.2%; in that of `COc1ccc2nc(NP(=O)(c3ccccc3)c3ccccc3)sc2c1`, inactive: 2.98%.
